Earlier results, collected in patent US6825040B2, “Method of using a vapor acid test kit” (Mainstream Engineering Corporation, priority 1995, dated 2004).

How the values were obtained:
[1] = pH range of the indicator colour change
[2] = negative log of the dissociation equilibrium constant of the indicator

Substance	pH Range [1]	pKa [2]
2,8-Dinitrophenol	2.4 to 4.0	3.69
5-(p-Nitrophenylazo)-salicylic acid. Na salt	10.0 to 12.0	11.2
Diphenylamino-p-benzene sodium sulfonate	–	2
α-Naphtholbenzein	9.0 to 11.0	–
